## Apparent affinities of Ab-95 variants for a coronavirus HR2 peptide

From the AlphaSeq antibody data of Engelhart et al. 2022 (doi:10.1038/s41597-022-01779-4), copy in the FLAb collection.

The target is the same throughout: PDVDLGDISGINAS, from the HR2 region of SARS-CoV-2 spike.

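Phage display of a naive human antibody library on the peptide gave the parent. AAYL52 was designed without a model: most single CDR substitutions and a random sample of double and triple ones. In AlphaSeq, yeast of one mating type display the scFv and yeast of the other type display the target. Pairs that bind mate more often; barcode pairs of the diploids are counted by sequencing. The ratio of observed to expected reads was calibrated, replicate by replicate, on BCL2-family standards whose Kd was known from biolayer interferometry. Each pool was mated in three replicate cultures.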

Each scFv is VH, a (GGGGS)3 linker, VL, as in the parent Ab-95, and differs from it in the CDRs of the light chain only.
VH: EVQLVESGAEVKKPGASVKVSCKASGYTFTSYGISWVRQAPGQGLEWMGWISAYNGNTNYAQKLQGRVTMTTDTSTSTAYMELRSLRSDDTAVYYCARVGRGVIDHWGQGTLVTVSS
VL: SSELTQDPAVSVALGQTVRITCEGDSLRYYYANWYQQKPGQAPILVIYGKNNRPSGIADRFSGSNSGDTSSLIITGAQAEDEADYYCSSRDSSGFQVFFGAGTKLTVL

Sequences are complete VL domains.
Values are log10 of the apparent Kd in nM; lower means stronger binding.
A pair that was not seen in that replicate is written "ND"; this usually means weak binding, but a binder can also be missed.
Nonspecific signal, from three strains lacking the peptide, appeared in 28% of pairings of library AAYL52, centred on 3.91 (5% of these signals below 2.90); values are not corrected for it. For each scFv, signals with the empty controls are counted beside the result, with their mean in brackets.

| # | VL | log10 Kd (nM) by replicate | control signals |
|---|---|---|---|
| 1 | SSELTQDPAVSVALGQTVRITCEGDSLRYYYANWYQQKPGQAPILVIYWKNNRPSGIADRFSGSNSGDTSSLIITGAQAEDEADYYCSSRDSSSFQVKFGAGTKLTVL | 3.29 / ND / 3.51 | 2 of 9 (3.75) |
| 2 | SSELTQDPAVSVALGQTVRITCEGDSLMYYYANWYQQKPGQAPILVIYGKNNRPSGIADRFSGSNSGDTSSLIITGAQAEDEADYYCSSRQSSGFGVFFGAGTKLTVL | 4.40 / 3.18 / 4.46 | 2 of 9 (3.44) |
| 3 | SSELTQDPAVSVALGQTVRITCEGDYLRYYEANWYQQKPGQAPILVIYGKNNRPSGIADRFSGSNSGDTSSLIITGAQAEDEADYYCSSRDSSGFGVFFGAGTKLTVL | 3.50 / ND / ND | 2 of 9 (3.81) |
| 4 | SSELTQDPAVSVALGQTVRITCEGDQLLYYYANWYQQKPGQAPILVIYGKNNRPSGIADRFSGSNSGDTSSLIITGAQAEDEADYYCSSLDSSGFQVFFGAGTKLTVL | ND / ND / ND | 3 of 9 (4.85) |
| 5 | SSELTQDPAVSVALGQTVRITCEGDSLVYIYANWYQQKPGQAPILVIYGKNNRMSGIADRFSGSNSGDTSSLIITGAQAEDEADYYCSSRDSSGFQVFFGAGTKLTVL | 3.96 / ND / ND | 2 of 9 (3.49) |
| 6 | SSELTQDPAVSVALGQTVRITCEGDSLRYYYANWYQQKPGQAPILVIYHKNNRPSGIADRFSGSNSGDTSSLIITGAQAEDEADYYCSPRVSSGFQVFFGAGTKLTVL | ND / ND / ND | 2 of 9 (4.10) |
| 7 | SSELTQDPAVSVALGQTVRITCMGDGLRYYYHNWYQQKPGQAPILVIYGKNNRPSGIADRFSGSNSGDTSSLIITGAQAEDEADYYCSSRDSSGFQVFFGAGTKLTVL | 2.99 / 2.65 / 1.95 | 3 of 9 (3.74) |
| 8 | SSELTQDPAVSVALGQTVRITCEGDSRRWYYANWYQQKPGQAPILVIYGKPNRPSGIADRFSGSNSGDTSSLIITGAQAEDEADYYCSSRDSSGFQVFFGAGTKLTVL | 3.26 / ND / 3.71 | 3 of 9 (3.95) |
| 9 | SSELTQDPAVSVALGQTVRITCEGDGLEYYYANWYQQKPGQAPILVIYGKNNRPSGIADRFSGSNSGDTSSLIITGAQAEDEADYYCSSRDSSGFQMFFGAGTKLTVL | 3.82 / ND / ND | 0 of 9 |
| 10 | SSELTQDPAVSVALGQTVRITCEGDSLRYYYASWYQQKPGQAPILVIYGKQNRPSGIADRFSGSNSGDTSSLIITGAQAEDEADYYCSSRDSSGFQVFFGAGTKLTVL | 2.86 / 2.56 / 2.29 | 2 of 9 (4.02) |
| 11 | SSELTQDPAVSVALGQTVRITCEGDACRYYYANWYQQKPGQAPILVIYGKNNRSSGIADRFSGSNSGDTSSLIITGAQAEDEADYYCSSRDSSGFQVFFGAGTKLTVL | 3.18 / 3.17 / 2.16 | 2 of 9 (3.19) |
| 12 | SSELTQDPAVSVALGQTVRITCEGDSLRYLYARWYQQKPGQAPILVIYGKNNRPSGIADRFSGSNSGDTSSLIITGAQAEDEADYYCSSRSSSGFQVFFGAGTKLTVL | ND / 3.93 / 4.03 | 3 of 9 (3.70) |
| 13 | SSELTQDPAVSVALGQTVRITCEGDSLRYYYANWYQQKPGQAPILVIYGKNNRPSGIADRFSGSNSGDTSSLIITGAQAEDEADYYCSSRDSSGFFVFFGAGTKLTVL | 3.35 / 2.95 / 2.68 | 3 of 9 (3.59) |
| 14 | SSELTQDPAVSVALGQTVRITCEGDSLRYYYANWYQQKPGQAPILVIYGKNNFPQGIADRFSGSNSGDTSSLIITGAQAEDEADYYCSSRDSSGFQVFFGAGTKLTVL | 3.83 / 2.76 / ND | 2 of 9 (3.65) |

The 2 strongest on average among those seen in every replicate, once more:

VL	log10 Kd (nM) by replicate	control signals
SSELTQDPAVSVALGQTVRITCMGDGLRYYYHNWYQQKPGQAPILVIYGKNNRPSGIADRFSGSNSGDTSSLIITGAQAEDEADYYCSSRDSSGFQVFFGAGTKLTVL	2.99 / 2.65 / 1.95	3 of 9 (3.74)
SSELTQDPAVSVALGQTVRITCEGDSLRYYYASWYQQKPGQAPILVIYGKQNRPSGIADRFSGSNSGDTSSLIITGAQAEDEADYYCSSRDSSGFQVFFGAGTKLTVL	2.86 / 2.56 / 2.29	2 of 9 (4.02)

Parent in this assay: reference entry 2.31, copy in this library 2.25.